This note sets out measurements from paper PMC8105262 (Molecular imaging and biology, 2020).

By UniProt entry, the sequences of proteins in these tests, tags left out.
UniProt Q9JIS5, whole entry: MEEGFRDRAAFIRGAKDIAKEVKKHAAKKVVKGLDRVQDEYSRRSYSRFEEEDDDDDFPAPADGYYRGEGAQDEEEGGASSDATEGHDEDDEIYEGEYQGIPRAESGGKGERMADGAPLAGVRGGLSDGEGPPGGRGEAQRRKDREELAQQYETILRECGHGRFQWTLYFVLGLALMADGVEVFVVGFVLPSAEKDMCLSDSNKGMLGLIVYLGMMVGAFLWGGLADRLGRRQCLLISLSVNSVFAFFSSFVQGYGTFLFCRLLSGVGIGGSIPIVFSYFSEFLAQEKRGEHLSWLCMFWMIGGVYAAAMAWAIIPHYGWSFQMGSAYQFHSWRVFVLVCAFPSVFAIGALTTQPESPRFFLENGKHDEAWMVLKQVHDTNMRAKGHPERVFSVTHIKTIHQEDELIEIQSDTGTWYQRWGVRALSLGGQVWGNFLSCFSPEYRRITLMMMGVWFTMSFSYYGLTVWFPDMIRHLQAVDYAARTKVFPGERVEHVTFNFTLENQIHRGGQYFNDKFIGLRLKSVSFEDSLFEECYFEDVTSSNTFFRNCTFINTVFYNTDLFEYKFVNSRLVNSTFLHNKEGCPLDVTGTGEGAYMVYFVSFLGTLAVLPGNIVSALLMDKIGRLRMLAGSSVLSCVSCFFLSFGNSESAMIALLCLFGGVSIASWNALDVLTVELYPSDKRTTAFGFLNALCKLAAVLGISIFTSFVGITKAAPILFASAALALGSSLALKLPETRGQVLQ

The target in this assay is SV2A (Mus musculus, UniProt Q9JIS5). It is filed as binding. Conditions: levetiracetam 1 mM, mouse brain sections.

Turning to `CC[C@@H](C(N)=O)N1CCCC1=O` [levetiracetam, reference compound], the “Effect of co-incubation on total [^18F]SynVesT-1 binding signal” value is on record as “reduced total binding signal to nonspecific levels”.
